Data from ChEMBL document CHEMBL1127469, “Decapeptide agonists of human C5a: the relationship between conformation and spasmogenic and platelet aggregatory activities” (J Med Chem, 1994).

What was measured:
Cavia porcellus = organism: Cavia porcellus; experiment: Platelet aggregation in guinea pig; type: functional
Summary of the method: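 Platelet-rich plasma from arterial blood of anesthetized male Hartley guinea pigs, diluted to 3 × 10^8 platelets/mL in 0.39% sodium citrate. Peptides are serially diluted 1.5-fold and shaken with plasma and a 3 mm glass bead at 100 rpm, 5 min, 37 °C. Aggregation is scored visually at 40×. The threshold is the greatest dilution giving visible aggregation. At least three independent duplicate runs; C5a and C3a serve as standards.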

Homo sapiens = organism: Homo sapiens; experiment: Effective dose required for smooth muscle contraction in human fetal artery; type: functional; conditions: Muscle tissue
Summary of the method: (§1)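 Isometric contraction of tissue strips in 2 mL organ baths of Krebs-Ringers solution, 37 °C, pH 7.4, gassed with 95% O2/5% CO2, equilibrated 1 h. Tachyphylaxis prevents cumulative curves, so each strip gets one peptide concentration, then histamine 10 μM. Response is taken as % of the histamine maximum. EC50 comes from probit analysis, reported as pD2 (-log EC50, M), mean ± SE.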

[1] = target: T1, C5a anaphylatoxin chemotactic receptor 1 (Homo sapiens) (UniProt P21730); experiment: Pharmacological activity against C5a receptor in human fetal artery; summary of the method: as §1
T1 sequence (whole entry): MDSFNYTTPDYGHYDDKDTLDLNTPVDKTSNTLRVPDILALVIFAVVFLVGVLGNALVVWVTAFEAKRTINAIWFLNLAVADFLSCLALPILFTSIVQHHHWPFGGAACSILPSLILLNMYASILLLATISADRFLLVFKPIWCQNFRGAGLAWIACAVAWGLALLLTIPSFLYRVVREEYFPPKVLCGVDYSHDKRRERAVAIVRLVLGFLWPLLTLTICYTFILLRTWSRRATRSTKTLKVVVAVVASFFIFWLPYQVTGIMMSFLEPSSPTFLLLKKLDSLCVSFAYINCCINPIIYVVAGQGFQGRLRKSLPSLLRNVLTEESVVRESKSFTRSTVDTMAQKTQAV

Row | SMILES | Platelet aggregation (Cavia porcellus) | EC50 (Homo sapiens) | pD2 [1]
1 | CC(C)C[C@H](NC(=O)[C@@H]1CCCN1C(=O)[C@H](C)NC(=O)[C@H](CC(=O)O)NC(=O)[C@H](CCCCN)NC(=O)[C@H](Cc1ccccc1)NC(=O)[C@H](CO)NC(=O)[C@@H](N)Cc1ccc(O)cc1)C(=O)N[C@H](C)C(=O)N[C@@H](CCCN=C(N)N)C(=O)O | 0.54 µM | 0.33 µM | 6.57
2 | CSCC[C@H](NC(=O)[C@H](CC(=O)O)NC(=O)[C@H](CCCCN)NC(=O)[C@H](Cc1ccccc1)NC(=O)[C@H](CO)NC(=O)[C@@H](N)Cc1ccc(O)cc1)C(=O)N1CCC[C@H]1C(=O)N[C@@H](C)C(=O)N[C@H](C)C(=O)N[C@@H](CCCN=C(N)N)C(=O)O [listing 1 of 2 here] | – | 17.9 µM | –
3 | CSCC[C@H](NC(=O)[C@H](CC(=O)O)NC(=O)[C@H](CCCCN)NC(=O)[C@H](Cc1ccccc1)NC(=O)[C@H](CO)NC(=O)[C@@H](N)Cc1ccc(O)cc1)C(=O)N1CCC[C@H]1C(=O)N[C@@H](CC(C)C)C(=O)N1CCC[C@@H]1C(=O)N[C@@H](CCCN=C(N)N)C(=O)O | 2.7 µM | 3.7 µM | 5.57
4 | CSCC[C@H](NC(=O)[C@H](CC(=O)O)NC(=O)[C@H](CCCCN)NC(=O)[C@H](Cc1ccccc1)NC(=O)[C@H](CO)NC(=O)[C@@H](N)Cc1ccc(O)cc1)C(=O)N1CCC[C@H]1C(=O)N[C@@H](CC(C)C)C(=O)N[C@H](Cc1ccccc1)C(=O)N[C@@H](CCCN=C(N)N)C(=O)O | 2.3 µM | 51.1 µM | 4.53
5 | CSCC[C@H](NC(=O)[C@H](CC(=O)O)NC(=O)[C@H](CCCCN)NC(=O)[C@H](Cc1ccccc1)NC(=O)[C@H](CO)NC(=O)[C@@H](N)Cc1ccc(O)cc1)C(=O)N1CCC[C@H]1C(=O)N[C@@H](C)C(=O)N[C@H](C)C(=O)N[C@@H](CCCN=C(N)N)C(=O)O [listing 2 of 2 here] | 90 µM | – | –
